# The entries are a selection whose mix differs from that of the whole data set. The source made the active and inactive calls.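 Rule for the calls: active = fluorescence ratio to DMSO below 75%, the collection mean minus 3 SD; inconclusive = too few cells collected in the well; inactive = the rest.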
# Amino acid sequences for entries named in this document (tags omitted).
# UniProt Q9NP58, whole entry: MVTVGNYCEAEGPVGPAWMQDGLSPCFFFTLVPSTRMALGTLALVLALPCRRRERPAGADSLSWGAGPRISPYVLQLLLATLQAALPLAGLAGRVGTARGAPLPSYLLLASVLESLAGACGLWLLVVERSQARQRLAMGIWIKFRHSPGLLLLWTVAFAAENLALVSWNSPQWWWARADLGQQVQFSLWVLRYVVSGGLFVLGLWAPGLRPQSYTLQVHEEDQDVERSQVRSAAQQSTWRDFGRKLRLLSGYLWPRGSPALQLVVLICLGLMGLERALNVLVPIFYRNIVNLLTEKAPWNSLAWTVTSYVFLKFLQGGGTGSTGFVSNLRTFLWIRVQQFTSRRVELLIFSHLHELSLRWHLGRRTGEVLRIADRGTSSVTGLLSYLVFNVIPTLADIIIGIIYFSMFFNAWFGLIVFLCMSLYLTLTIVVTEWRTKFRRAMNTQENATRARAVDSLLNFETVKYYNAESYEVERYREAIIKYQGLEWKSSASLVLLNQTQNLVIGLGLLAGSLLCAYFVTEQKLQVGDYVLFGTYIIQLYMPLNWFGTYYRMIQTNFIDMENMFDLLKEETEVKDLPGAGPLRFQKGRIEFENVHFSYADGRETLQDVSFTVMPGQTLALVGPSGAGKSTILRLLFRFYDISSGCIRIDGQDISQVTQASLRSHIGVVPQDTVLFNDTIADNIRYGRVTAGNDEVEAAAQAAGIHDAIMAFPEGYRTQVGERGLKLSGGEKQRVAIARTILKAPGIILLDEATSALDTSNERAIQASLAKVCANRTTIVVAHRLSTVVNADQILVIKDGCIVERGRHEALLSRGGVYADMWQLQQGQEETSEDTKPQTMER
# Biological target: ATP-binding cassette sub-family B member 6 (Homo sapiens) (UniProt Q9NP58)
# Experiment: ABCB6 transporter inhibitors, primary screen, K562-ABCB6 cells, flow cytometry, MLPCN library (AID 602162);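 note: signal is porphyrin accumulated inside mitochondria; 100% equals median channel fluorescence of DMSO control wells; lower ratio means ABCB6 inhibition with less porphyrin fluorescence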
# Conditions: K562-ABCB6 porphyrin accumulation, 1 h, at 10 µM, stronger effect = lower value
row,SMILES,fluorescence ratio to DMSO
1,CCCCn1nnnc1C(c1cccc(OC)c1OC)N1CCC(n2c(=O)[nH]c3ccccc32)CC1 (configuration not stated),inactive: 97%
2,O=C(OC1CN2CCC1CC2)C1c2ccccc2C=Cc2ccccc21 (configuration not stated),inactive: 93%
3,O=c1[nH]c2ccccc2n1C1CCN(C(c2cccs2)c2nnnn2C2CCCC2)CC1 (configuration not stated),inactive: 97%
4,N/C(=N\O)c1c(N)no[n+]1[O-],inactive: 99%
5,COc1cccc(C(c2nnnn2C(C)(C)C)N2CCC(n3c(=O)[nH]c4ccccc43)CC2)c1OC (configuration not stated),inactive: 88%
6,CCOC(=O)N1CCC(Nc2ccc(C)cc2)CC1,inactive: 100%
7,COc1ccc(C(=O)NCC2(N3CCOCC3)CCCCC2)cc1OC,inactive: 96%
8,O=c1[nH]c2ccccc2n1C1CCN(C(c2ccnc3ccccc23)c2nnnn2C2CCCC2)CC1 (configuration not stated),inactive: 155%
9,O=c1[nH]c2ccccc2n1C1CCN(C(c2cccs2)c2nnnn2C2CCCCC2)CC1 (configuration not stated),inactive: 87%
10,O=C(NCC1(N2CCOCC2)CCCCC1)c1cc(Br)ccc1Cl,inactive: 102%
11,CCCCn1nnnc1C(c1ccccc1)N1CCC(n2c(=O)[nH]c3ccccc32)CC1 (configuration not stated),inactive: 91%
12,COc1cc(C(=O)NCC2(N3CCOCC3)CCCCC2)cc(OC)c1C,inactive: 98%
13,CC(C)(C)n1nnnc1C(c1cccc2ccccc12)N1CCC(n2c(=O)[nH]c3ccccc32)CC1 (configuration not stated),inactive: 96%
14,c1ccc(CN2CCC(Nc3ccccc3)CC2)cc1,inactive: 93%
15,Cc1cc(N(CCCl)CCCl)ccc1C=O,inactive: 94%
16,CCCN1CCC(Nc2cc(OC)cc(OC)c2)CC1,inactive: 102%
17,O=c1[nH]c2ccccc2n1C1CCN(C(c2ccccc2)c2nnnn2C2CCCC2)CC1 (configuration not stated),inactive: 95%
18,CN(C)C1(CNC(=O)c2cccc(C#N)c2)CCCCC1,inactive: 102%
19,CC(C)(C)OC(=O)N1CCC(N(C(=O)c2ccccc2)c2ccc(Cl)cc2)CC1,inactive: 98%
20,N#Cc1ccc(C(=O)NCC2(N3CCCCC3)CCCCC2)cc1,inactive: 93%
21,O=C(NCC1(N2CCCCC2)CCCCC1)c1ccco1,inactive: 111%

row,SMILES,fluorescence ratio to DMSO
1,Cn1c(=O)[nH]cc(N(CCCl)CCCl)c1=O,inactive: 100%
2,CN(C)c1ccc(C(=O)NCC2(N3CCCCC3)CCCCC2)cc1,inactive: 101%
3,Cc1ccccc1NC1(C#N)CCN(Cc2ccccc2)CC1,inactive: 96%
4,CC(C)(C)n1nnnc1C(c1ccnc2ccccc12)N1CCC(n2c(=O)[nH]c3ccccc32)CC1 (configuration not stated),inactive: 96%
5,CCN1CCC(Nc2cccc(F)c2)CC1,inactive: 92%
6,COc1ccc(C(c2nnnn2C2CCCCC2)N2CCC(n3c(=O)[nH]c4ccccc43)CC2)cc1 (configuration not stated),inactive: 101%
7,Cc1ccc(NC2(C#N)CCN(Cc3ccccc3)CC2)cc1,inactive: 98%
8,Cc1ccc(C(=O)NCC2(N3CCCCC3)CCCCC2)o1,inactive: 95%
9,Fc1ccccc1NC1CCN(Cc2ccccc2)CC1,inactive: 98%
10,O=c1[nH]c2ccccc2n1C1CCN(C(c2ccnc3ccccc23)c2nnnn2C2CCCCC2)CC1 (configuration not stated),inactive: 95%
11,COc1cc(OC)cc(C(=O)NCC2(N3CCCCC3)CCCCC2)c1,inactive: 97%
12,CC(=O)N(c1ccccc1)C1CCNCC1,inactive: 99%
13,COc1cccc(C(c2nnnn2C2CCCCC2)N2CCC(n3c(=O)[nH]c4ccccc43)CC2)c1OC (configuration not stated),inactive: 95%
14,CCC(c1nnnn1C1CCCCC1)N1CCC(n2c(=O)[nH]c3ccccc32)CC1 (configuration not stated),inactive: 100%
15,CN1CCC(Nc2ccc(Cl)cc2)CC1,inactive: 99%
16,CCC(CO)(C(=O)OC1CN2CCC1CC2)c1ccccc1 (configuration not stated),inactive: 103%
17,COc1cc(OC)cc(C(=O)NCC2(N3CCOCC3)CCCCC2)c1,inactive: 97%
18,COc1cccc(C(c2nnnn2C2CCCC2)N2CCC(n3c(=O)[nH]c4ccccc43)CC2)c1OC (configuration not stated),inactive: 94%
19,COc1cccc(C(=O)N(c2cc(C)cc(C)c2)C2CCN(C(=O)OC(C)(C)C)CC2)c1,inactive: 98%
20,CCCOc1ccc(C(=O)NCC2(N(C)C)CCCCC2)cc1,inactive: 97%
21,O=c1[nH]c2ccccc2n1C1CCN(C(c2cc3ccccc3o2)c2nnnn2C2CCCC2)CC1 (configuration not stated),inactive: 98%

row,SMILES,fluorescence ratio to DMSO
1,CC(C)(C)OC(=O)N1CCC(Nc2ccccc2)CC1,inactive: 99%
2,O=C(O)C1(Nc2ccccc2)CCN(Cc2ccccc2)CC1,inactive: 96%
3,NN(c1ccccc1)C1CCN(CCc2ccccc2)CC1,inactive: 99%
4,CCOc1ncccc1C(=O)NCC1(N2CCOCC2)CCCCC1,inactive: 97%
5,CN1CCC(Nc2ccc(F)c(Cl)c2)CC1,inactive: 102%
6,CCOC(=O)N1CCC(Nc2ccc(OC)cc2)CC1,inactive: 103%
7,CCCCn1nnnc1C(c1ccc(OC)cc1)N1CCC(n2c(=O)[nH]c3ccccc32)CC1 (configuration not stated),inactive: 96%
8,O=C(OC1CN2CCC1CC2)C1c2ccccc2Oc2ccccc21 (configuration not stated),inactive: 108%
9,O=c1[nH]c2ccccc2n1C1CCN(C(c2cc3ccccc3o2)c2nnnn2C2CCCCC2)CC1 (configuration not stated),inactive: 103%
10,O=C(NCC1(N2CCCCC2)CCCCC1)c1ccc(Cl)s1,inactive: 102%
11,N#CC1(Nc2ccccc2)CCN(Cc2ccccc2)CC1,inactive: 94%
12,COc1ccc(Cl)cc1C(=O)NCC1(N2CCOCC2)CCCCC1,inactive: 101%
13,O=C(NCC1(N2CCOCC2)CCCCC1)c1cc2ccccc2o1,inactive: 98%
14,O=c1[nH]c2ccccc2n1C1CCN(C(c2ccccc2OC(F)(F)F)c2nnnn2C2CCCCC2)CC1 (configuration not stated),inactive: 104%
15,O=C(NCC1(N2CCCCC2)CCCCC1)c1ccc(Cl)nc1,inactive: 103%
16,Cc1cc(C)cc(N(C(=O)c2ccccc2)C2CCN(C(=O)OC(C)(C)C)CC2)c1,inactive: 102%
17,CSc1ccccc1C(=O)NCC1(N2CCCCC2)CCCCC1,inactive: 104%
18,Cc1cccc(NC2(C#N)CCN(Cc3ccccc3)CC2)c1,inactive: 101%
19,O=C(NCC1(N2CCCCC2)CCCCC1)c1ccc(=O)[nH]c1,inactive: 101%
20,CCCCn1nnnc1C(c1cccs1)N1CCC(n2c(=O)[nH]c3ccccc32)CC1 (configuration not stated),inactive: 95%
